Experimental data published in BindingDB's records for doi:10.1016/0006-8993(87)90040-0 (St, Marianna University School of Medicine, 1987).

The chains behind the UniProt entries cited, without tags or fusion partners.
UniProt P61169, whole entry: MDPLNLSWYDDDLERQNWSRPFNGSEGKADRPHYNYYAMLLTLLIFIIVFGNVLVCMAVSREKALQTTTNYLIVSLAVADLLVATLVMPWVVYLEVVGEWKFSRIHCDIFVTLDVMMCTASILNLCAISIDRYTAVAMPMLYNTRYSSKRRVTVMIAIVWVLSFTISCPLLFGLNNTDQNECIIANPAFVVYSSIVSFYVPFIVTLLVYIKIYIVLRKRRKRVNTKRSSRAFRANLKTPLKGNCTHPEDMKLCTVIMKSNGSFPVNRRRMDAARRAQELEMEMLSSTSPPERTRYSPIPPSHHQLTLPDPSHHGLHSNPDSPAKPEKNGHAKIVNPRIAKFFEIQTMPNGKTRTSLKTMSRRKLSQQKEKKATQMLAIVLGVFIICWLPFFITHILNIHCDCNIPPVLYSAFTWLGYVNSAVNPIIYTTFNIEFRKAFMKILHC

Target: D(2) dopamine receptor (Rattus norvegicus, UniProt P61169)

OCCN1CCN(CC/C=C2/c3ccccc3Sc3ccc(C(F)(F)F)cc32)CC1 [(cis) 2-{4-[3-(2-Trifluoromethyl-thioxanthen-9-ylidene)-propyl]-piperazin-1-yl}-ethanol(Flupentixol)]
Ki: 8.3 nM
